Data from patent publication US12729245B2, “Compositions and methods for inhibiting T cell exhaustion” (The Board of Trustees of the Leland Stanford Junior …, priority 2017, dated 2026).

Experiment: In vivo provision of IL-2 with HA-28z CAR T cells
Conditions: 250,000 IU/mouse IP days 7, 9, 11, 13, 15; 1×10^6 CAR+ T cells IV day 7
Excerpt: 250,000 IU/mouse was given IP on days 7, 9, 11, 13, and 15 post tumor engraftment. 1×10^6 CAR+ T cells were given IV on day 7.

IL-2: interleukin-2 given IP to mice, 250,000 IU/mouse
reproduction of the enhanced function of JUN-CAR T cells: can not be reproduced
